Assay results taken from BindingDB's records for patent US10053458 (Korea Research Institute of Chemical Technology, 2018).

Chains of the proteins cited; added tags and fusions are not shown. Lines headed by an entry give the natural chain unless they say otherwise; changes in a name come on top.
UniProt Q9UM73: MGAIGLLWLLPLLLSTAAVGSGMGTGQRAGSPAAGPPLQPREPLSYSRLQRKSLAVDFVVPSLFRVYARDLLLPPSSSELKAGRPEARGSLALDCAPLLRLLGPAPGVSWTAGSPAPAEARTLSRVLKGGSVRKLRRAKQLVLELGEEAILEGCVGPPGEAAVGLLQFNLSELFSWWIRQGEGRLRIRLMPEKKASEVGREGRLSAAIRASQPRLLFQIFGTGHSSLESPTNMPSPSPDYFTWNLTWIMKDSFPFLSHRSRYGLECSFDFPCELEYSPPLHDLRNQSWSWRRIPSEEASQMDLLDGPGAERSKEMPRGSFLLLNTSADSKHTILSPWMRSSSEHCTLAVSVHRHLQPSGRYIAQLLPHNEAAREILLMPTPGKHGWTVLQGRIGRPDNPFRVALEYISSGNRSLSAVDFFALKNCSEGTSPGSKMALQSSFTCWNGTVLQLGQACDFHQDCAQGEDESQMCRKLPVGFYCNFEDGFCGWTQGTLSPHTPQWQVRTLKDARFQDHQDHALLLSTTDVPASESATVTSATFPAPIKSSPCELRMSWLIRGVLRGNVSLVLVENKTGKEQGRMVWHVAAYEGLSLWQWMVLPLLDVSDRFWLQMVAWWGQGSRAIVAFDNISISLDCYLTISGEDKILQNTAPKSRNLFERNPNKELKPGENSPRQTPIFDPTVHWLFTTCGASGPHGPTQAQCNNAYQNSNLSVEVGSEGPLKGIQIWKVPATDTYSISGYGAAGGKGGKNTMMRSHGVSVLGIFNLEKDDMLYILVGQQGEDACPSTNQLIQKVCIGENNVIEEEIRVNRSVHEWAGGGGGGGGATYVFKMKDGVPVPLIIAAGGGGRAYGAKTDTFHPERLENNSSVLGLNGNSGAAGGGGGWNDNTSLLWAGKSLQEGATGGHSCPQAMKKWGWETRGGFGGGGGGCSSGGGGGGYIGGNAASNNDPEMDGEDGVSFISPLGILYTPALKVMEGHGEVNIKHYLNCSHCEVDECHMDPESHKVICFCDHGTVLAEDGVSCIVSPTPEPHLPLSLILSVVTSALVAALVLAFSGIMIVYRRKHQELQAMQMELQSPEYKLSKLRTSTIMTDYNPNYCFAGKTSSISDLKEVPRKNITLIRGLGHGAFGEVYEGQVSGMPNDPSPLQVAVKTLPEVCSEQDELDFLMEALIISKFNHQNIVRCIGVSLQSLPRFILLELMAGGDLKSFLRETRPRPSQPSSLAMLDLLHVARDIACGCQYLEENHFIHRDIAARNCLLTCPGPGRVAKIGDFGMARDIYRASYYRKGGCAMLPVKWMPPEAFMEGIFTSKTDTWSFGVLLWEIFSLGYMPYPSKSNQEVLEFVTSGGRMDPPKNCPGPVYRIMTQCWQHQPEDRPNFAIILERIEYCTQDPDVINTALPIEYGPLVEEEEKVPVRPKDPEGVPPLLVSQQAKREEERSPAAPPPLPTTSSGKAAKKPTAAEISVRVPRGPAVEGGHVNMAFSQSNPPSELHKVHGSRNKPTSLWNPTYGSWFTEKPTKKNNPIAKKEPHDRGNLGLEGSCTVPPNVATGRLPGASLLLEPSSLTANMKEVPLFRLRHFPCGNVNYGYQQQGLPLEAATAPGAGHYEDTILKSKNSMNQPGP

Molecular target: ALK tyrosine kinase receptor (Homo sapiens, UniProt Q9UM73)

IC50, < 10 nM:
CC(C)S(=O)(=O)c1ccccc1Nc1nc(Nc2cc3c(cc2OC(F)F)C(C)(C)NCC3)ncc1Cl [US10053458, 100]
COc1cc2c(cc1Nc1ncc(Cl)c(Nc3ccccc3S(=O)(=O)C(C)C)n1)CCNC2C(C)C (configuration not stated) [US10053458, 28]
CCOc1cc2c(cc1Nc1ncc(Cl)c(Nc3ccccc3S(=O)(=O)C(C)C)n1)CN(CCO)CC2(C)C [US10053458, 93]
COc1cc2c(cc1Nc1ncc(Cl)c(Nc3ccccc3S(=O)(=O)C(C)C)n1)C(=O)NCC2 [US10053458, 44]
CCOc1cc2c(cc1Nc1ncc(Cl)c(Nc3ccccc3S(=O)(=O)C(C)C)n1)CCNC2(C)C [US10053458, 99]
COc1cc2c(cc1Nc1ncc(Cl)c(Nc3ccccc3S(=O)(=O)C(C)C)n1)C(C)NCC2 (configuration not stated) [US10053458, 46]
COc1cc2c(cc1Nc1ncc(Cl)c(Nc3ccccc3S(=O)(=O)C(C)C)n1)C1(CCCC1)CN(C(=O)C(F)(F)F)C2 [US10053458, 13]
